This is an account of results in patent publication US9075060B2, “Methods for diagnosing oral or oral-pharyngeal cancer” (Technion Research & Development Foundation Limited, priority 2009, dated 2015).

By UniProt entry, the sequences of proteins in these tests, tags left out.
UniProt P30536, whole entry: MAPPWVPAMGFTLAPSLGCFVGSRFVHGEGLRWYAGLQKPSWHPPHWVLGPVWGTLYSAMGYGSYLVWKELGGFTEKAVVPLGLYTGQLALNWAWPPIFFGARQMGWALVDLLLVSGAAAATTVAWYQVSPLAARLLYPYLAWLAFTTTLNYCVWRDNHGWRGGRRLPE

Test [1] addresses T1, TSPO (Homo sapiens, UniProt P30536).
T1 construct: Assays of [^3H]; host or cells: SCC-25 and SCC-15 human oral cancer cell lines
Description: [3H]PK 11195 binding to membranes of SCC-15 cells, Scatchard analysis. Here is the method:
(§1) Assays of [^3H] […] After 80 minute incubation at 4° C., the samples were filtered through Whatman CF/C filters using a vacuum system, washed three times with 4 ml of 5 mM ice cold phosphate buffer and placed in vials containing 4 ml of CytoScint™ (MP Biomedicals, Costa Mesa, Calif.). Radioactivity was counted after 12 hours with a liquid scintillation analyzer. Specific binding was obtained by subtracting non-specific binding from total binding.

Test [2] addresses T1, TSPO. Nature of the test: [3H]PK 11195 binding to membranes of SCC-25 cells, Scatchard analysis. Here is the method: as §1

As for `CCC(C)N(C)C(=O)c1cc2ccccc2c(-c2ccccc2Cl)n1` (centres unmarked) [[^3H]PK 11195, PK 11195], the Kd in test [1] stood at 5.9 ± 4.6 nM; in test [2], 5.7 ± 2 nM.
